Test results published in PubChem BioAssay AID485313 (National Center for Advancing Translational Sciences (NCATS), 2010).
Only a part is listed here, and it is no random draw. Some of these compounds have results that are not shown, active ones among them. The source made the active and inactive calls. The call rests on the fitted dose curve; in most records, active means well fitted activation curve with a large enough effect; inconclusive means small, poorly fitted or top-dose-only effect; inactive means no such curve, though single readings can be large or run the other way.

assay: qHTS Assay for NPC1 Promoter Activators; details: Huh7 NPC1 promoter luciferase reporter, 24 h; at 9.22 µM (top of the series);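 further: reporter is driven by a mutant NPC1 promoter; % of control where 0% means no effect; nearly all actives have a fitted effect of over 60% in size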

Structure (SMILES) | activation
CN1[C@@H]2CC[C@H]1CC(OC(=O)C(O)(c1ccccc1)c1ccccc1)C2 (some centres undefined) | inactive: -3.16%
O=C(NCC1(N2CCCCC2)CCCCC1)c1cc([N+](=O)[O-])ccc1Cl | inactive: -1.37%
Cc1ccc(C(=O)NCC2(N3CCCCC3)CCCCC2)cc1 | inactive: -1.48%
COc1cc(SC)ccc1C(=O)NCC1(N(C)C)CCCCC1 | inactive: 2.76%
CCN(CC)CC(C)C(C)OC(=O)C(O)(c1ccccc1)c1ccccc1 (centres undefined) | inactive: -2.85%
CC(C)N1C(=O)CC2(CCN(CCOC(=O)C(O)(c3ccccc3)c3ccccc3)CC2)C1=O | inactive: -0.205%
CN(C)c1ccc(C(=O)NCC2(N(C)C)CCCCC2)cc1 | inactive: -3.88%
CN(C)C1CCCC1OC(=O)C(O)(c1ccccc1)c1ccccc1 (centres undefined) | inactive: 2.47%
Cc1ccccc1C(=O)NCC1(N2CCCCC2)CCCCC1 | inactive: -0.462%
COc1ccc(C(=O)NCC2(N(C)C)CCCCC2)cc1 | inactive: -1.52%
O=C(NCC1(N2CCCCC2)CCCCC1)c1cccc(Br)c1 | inactive: -0.351%
CCN1CCCC(OC(=O)C2(O)c3ccccc3C=Cc3ccccc32)C1 (centres undefined) | inactive: 0.0714%
Cc1cc(C(=O)NCC2(N3CCCCC3)CCCCC2)ccc1[N+](=O)[O-] | inactive: 0.518%
O=C(NCC1(N2CCCCC2)CCCCC1)c1cc(F)c(F)cc1Cl | inactive: -2.26%
C=CCN1CCN(CCOC(=O)C(O)(c2ccccc2)c2ccccc2)CC1 | inactive: 0.351%
COc1cc(C(=O)NCC2(N(C)C)CCCCC2)c([N+](=O)[O-])cc1OC | inactive: -2.78%
CN(C)C1(CNC(=O)c2ccc(Br)cc2)CCCCC1 | inactive: 2.48%
O=C(NCC1(N2CCCCC2)CCCCC1)c1cccc(Cl)c1 | inactive: -22.7%
COc1ccc(Cl)cc1C(=O)NCC1(N(C)C)CCCCC1 | inactive: 2.31%
COc1cccc(C(=O)NCC2(N3CCCCC3)CCCCC2)c1 | inactive: 3.36%
O=C(OC1CN2CCC1CC2)C(CO)(c1ccccc1)c1ccccc1 (centres undefined) | inactive: 1.23%
CC(C)Oc1ccc(C(=O)NCC2(N(C)C)CCCCC2)cc1 | inactive: 4.39%
CN(C)c1cccc(C(=O)NCC2(N(C)C)CCCCC2)c1 | inactive: -1.33%
COc1ccc(Br)c(C(=O)NCC2(N3CCCCC3)CCCCC2)c1 | inactive: 6.22%
